Experimental data published in patent US20130316985A1, “GPR35 Ligands And Uses Thereof” (CORNING INCORPORATED, priority 2012, published 2013).

By UniProt entry, the sequences of proteins in these tests, tags left out. Where a name states a change or a piece, a line headed by the entry shows the natural chain unless it says otherwise.
UniProt Q9HC97: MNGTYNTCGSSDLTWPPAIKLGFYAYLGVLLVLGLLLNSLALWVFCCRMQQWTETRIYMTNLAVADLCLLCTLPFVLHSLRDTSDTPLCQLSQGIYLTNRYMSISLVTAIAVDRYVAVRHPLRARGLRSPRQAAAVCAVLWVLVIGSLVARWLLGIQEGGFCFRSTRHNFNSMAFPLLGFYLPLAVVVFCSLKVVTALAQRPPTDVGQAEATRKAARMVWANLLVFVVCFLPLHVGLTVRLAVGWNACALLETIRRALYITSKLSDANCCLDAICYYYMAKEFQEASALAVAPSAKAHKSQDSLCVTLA

Molecular target: GPR35 (Homo sapiens, UniProt Q9HC97)
Experiment: DMR agonism assay in native HT-29 cells (Epic optical biosensor)
Conditions: read-out: Potency EC50, DMR

`O=[N+]([O-])c1ccc(O)c([N+](=O)[O-])c1` [2,4-DNP, 2,4-dinitrophenol] gave an EC50 of 31.1 ± 2.9 µM.
